Molecular target: Histone acetyltransferase KAT2B (Homo sapiens) (UniProt Q92831)
Details: Compound concentration 10.0 uM, Protein concentration 2.0 uM

Amino acid sequences for entries named in this document (tags omitted).
UniProt Q92831, whole entry, looked up: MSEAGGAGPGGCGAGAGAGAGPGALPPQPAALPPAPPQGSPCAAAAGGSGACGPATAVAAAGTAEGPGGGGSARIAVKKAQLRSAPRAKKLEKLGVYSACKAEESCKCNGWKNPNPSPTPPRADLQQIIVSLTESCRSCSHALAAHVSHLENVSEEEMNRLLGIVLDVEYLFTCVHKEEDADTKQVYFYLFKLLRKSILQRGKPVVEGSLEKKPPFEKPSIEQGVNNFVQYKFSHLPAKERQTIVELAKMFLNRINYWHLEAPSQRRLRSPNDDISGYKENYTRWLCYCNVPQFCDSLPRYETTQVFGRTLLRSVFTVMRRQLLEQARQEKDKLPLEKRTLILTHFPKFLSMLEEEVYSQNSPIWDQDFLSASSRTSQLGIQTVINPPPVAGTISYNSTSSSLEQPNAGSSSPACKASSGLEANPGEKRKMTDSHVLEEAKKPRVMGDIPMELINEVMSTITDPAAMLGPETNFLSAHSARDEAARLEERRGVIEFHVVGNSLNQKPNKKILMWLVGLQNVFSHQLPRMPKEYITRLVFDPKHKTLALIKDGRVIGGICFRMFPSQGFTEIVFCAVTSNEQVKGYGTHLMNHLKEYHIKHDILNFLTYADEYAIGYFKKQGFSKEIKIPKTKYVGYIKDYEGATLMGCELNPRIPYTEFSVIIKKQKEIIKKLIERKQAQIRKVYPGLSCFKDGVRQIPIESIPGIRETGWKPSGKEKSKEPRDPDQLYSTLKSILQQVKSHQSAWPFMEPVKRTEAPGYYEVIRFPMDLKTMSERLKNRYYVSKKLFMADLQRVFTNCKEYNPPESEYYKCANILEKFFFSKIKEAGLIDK

ΔTm: 5.77 °C
Structure (SMILES): Cc1nnc2c3ccccc3c(N[C@@H](C)[C@H](c3ccccc3)N(C)C)nn12
